Test results published in paper PMC4222822, “Discovery and Characterization of a Potent and Selective Inhibitor of Aedes aegypti Inward Rectifier Potassium Channels” (PLoS ONE, 2014).

Chains of the proteins cited; added tags and fusions are not shown. Residues count along the entry.
UniProt L0EQS9, 1-486: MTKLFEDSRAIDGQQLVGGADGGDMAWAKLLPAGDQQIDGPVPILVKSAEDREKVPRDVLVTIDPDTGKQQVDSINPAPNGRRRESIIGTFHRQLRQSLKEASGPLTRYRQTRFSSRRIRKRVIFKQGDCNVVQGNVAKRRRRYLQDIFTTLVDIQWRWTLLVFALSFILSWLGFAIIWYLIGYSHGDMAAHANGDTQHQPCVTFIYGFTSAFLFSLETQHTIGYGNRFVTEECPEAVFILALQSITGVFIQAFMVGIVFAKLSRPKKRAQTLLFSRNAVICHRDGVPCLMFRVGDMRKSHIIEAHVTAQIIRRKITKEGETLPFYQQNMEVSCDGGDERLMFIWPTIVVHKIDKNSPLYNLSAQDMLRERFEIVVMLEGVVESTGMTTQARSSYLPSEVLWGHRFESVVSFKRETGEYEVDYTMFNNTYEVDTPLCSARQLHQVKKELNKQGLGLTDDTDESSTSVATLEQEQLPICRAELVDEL

These compounds were tested against AeKir1 (Aedes aegypti, UniProt L0EQS9) (assay: Tl+ flux assay in T-REx-HEK293-AeKir1 cells). Settings: Table S3, left-hand sulfonamide SAR; 11-point CRCs on AeKir1 in Tl+ flux, triplicate on two separate days.
Type: cell-based
Procedure: Tl^+ flux assays were performed essentially as described previously, [18], [19]. Briefly, stably transfected T-Rex-HEK-293 cells expressing AeKir1 channels were cultured overnight in 384-well plates (20,000 cells/20 µL/well black-walled, clear-bottomed BD PureCoat amine-coated plates (BD, Bedford, MA) with a plating media containing DMEM, 10% dialyzed FBS and 1 µg/mL tetracycline. The next day, the cell culture medium was replaced with a dye-loading solution containing assay buffer (Hanks Balanced Salt Solution with 20 mM HEPES, pH 7.3), 0.01% (w/v) Pluronic F-127 (Life Technologies, Carlsbad, CA), and 1.2 µM of the thallium-sensitive dye Thallos-AM (TEFlabs, Austin, TX). Following 1 hr incubation at room temperature, the dye-loading solution was washed from the plates and replaced with 20 µL/well of assay buffer. The plates were transferred to a Hamamatsu Functional Drug Screening System 6000 (FDSS6000; Hamamatsu, Hamamatsu (or Bridgewater, NJ), Japan) where 20 µL/well of test compounds in assay buffer (as prepared below) were added and allowed to incubate with the cells for 20 min. After the incubation period, a baseline recording was collected at 1 Hz for 10 s (excitation 470±20 nm, emission 540±30 nm) followed by a Tl^+ stimulus buffer addition (10 µL/well) and data collection for an additional 4 min. The Tl^+ stimulus buffer contains in (mM) 125 NaHCO3, 1.8 CaSO4, 1 MgSO4, 5 glucose, 12 Tl2SO4, 10 HEPES, pH 7.4. For Tl^+ flux assays on the mammalian channels Kir2.x, Kir4.1 and Kir6.2/SUR1 expressing cells, the Tl^+ stimulus buffer contained 1.8 mM Tl2SO4. Also, Tl^+ flux assays on Kir3.1/3.2/mGlu8 expressing cell, required addition of an EC80 concentration of glutamate (Sigma-Aldrich, St. Louis, MO) with the Tl^+ stimulus buffer. The test compounds were transferred to daughter polypropylene 384-well plates (Greiner Bio-One, Monroe, NC) using an Echo555 liquid handler (Labcyte, Sunnyvale, CA), and then diluted into assay buffer to generate a 2X stock in 0.6% DMSO (0.3% final). For Tl^+ flux assays on Kir6.2/SUR1 expressing cells, test compounds were diluted in assay buffer containing diazoxide (250 µM final) to induce channel activation. Concentration-response curves (CRCs) were generated by screening compounds at 3-fold dilution series in 4-point (1 µM–30 µM) or 11-point (1 nM–30 µM) CRCs. Tl^+ flux data were analyzed as previously described, [21], [22] using a combination of Excel (Microsoft Corp, Redmond, WA) with XLfit add-in (IDBS, Guildford, Surrey, UK) and OriginPro (OriginLab, Northampton, MA) software. Raw data were opened in Excel and each data point in a given trace was divided by the first data point from that trace (static ratio) followed by subtraction of data points from control traces generated in the presence of vehicle controls. The slope of the fluorescence increase beginning 5 s after Tl^+ addition and ending 15 s after Tl^+ addition was calculated. To compare the effect of DMSO on AeKir1-mediated Tl^+ flux, a one-way ANOVA was performed with a Tukey's multiple comparison test. Prism software (GraphPad Software) was used to generate CRC from Tl^+ flux. Half-inhibition concentration (IC50) values were calculated from fits using a four parameter logistic equation.
Work on `CCC(=O)N1CCc2cc(S(=O)(=O)Nc3cccc(OC(F)(F)F)c3)ccc21` yielded an IC50 greater than 30 µM. `CCC(=O)N1CCc2cc(S(=O)(=O)Nc3cc(OC)cc(OC)c3)ccc21` showed an IC50 greater than 30 µM. With `CCC(=O)N1CCc2cc(S(=O)(=O)Nc3cccc(S(C)(=O)=O)c3)ccc21` the IC50 was greater than 30 µM. `CCC(=O)N1CCc2cc(S(=O)(=O)Nc3cccc(OC)c3OC)ccc21` was tested, and the IC50 was greater than 30 µM. For `CCOc1cccc(NS(=O)(=O)c2ccc3c(c2)CCN3C(=O)CC)c1`, the IC50 was 3.47 µM. `CCC(=O)N1CCc2cc(S(=O)(=O)Nc3ccccc3OC)ccc21` showed an IC50 greater than 30 µM. `CCC(=O)N1c2ccc(S(=O)(=O)N(C)c3ccc(Br)cc3)cc2CC1C` (stereo not shown) showed an IC50 of 2.16 µM. Work on `CCC(=O)N1CCc2cc(S(=O)(=O)Nc3cccc(Oc4ccccn4)c3)ccc21` yielded an IC50 of 1.4 µM. Compound `CCOc1ccc(NS(=O)(=O)c2ccc3c(c2)CCN3C(=O)CC)cc1` has an IC50 greater than 30 µM. `CCC(=O)N1CCc2cc(S(=O)(=O)Nc3ccc(F)c(C(C)=O)c3)ccc21` showed an IC50 greater than 30 µM. `CCC(=O)N1CCc2cc(S(=O)(=O)NC3CCOC3)ccc21` (stereo not shown) was tested, and the IC50 was greater than 30 µM. With `CCC(=O)N1c2ccc(S(=O)(=O)Nc3ccc(Br)cc3)cc2CC1C` (stereo not shown) the IC50 was 2.36 µM. Compound `CCC(=O)N1CCc2cc(S(=O)(=O)Nc3cccc(Oc4ccccc4)c3)ccc21` has an IC50 greater than 30 µM. With `CCC(=O)N1CCc2cc(S(=O)(=O)Nc3cccc(OC(F)F)c3)ccc21` the IC50 was greater than 30 µM. `CCC(=O)N1CCc2cc(S(=O)(=O)Nc3ccc4c(c3)OCO4)ccc21` was tested, and the IC50 was greater than 30 µM. `CCC(=O)N1CCc2cc(S(=O)(=O)Nc3ccc4c(ccn4C)c3)ccc21` was tested, and the IC50 was greater than 30 µM. Compound `CCC(=O)N1CCc2cc(S(=O)(=O)Nc3ccc(F)c(OC)c3)ccc21` has an IC50 of 1.93 µM. Work on `CCC(=O)N1CCc2cc(S(=O)(=O)Nc3ccc4c(c3)OC(F)(F)O4)ccc21` yielded an IC50 greater than 30 µM. Compound `CCC(=O)N1CCc2cc(S(=O)(=O)Nc3cccc(OCCOC)c3)ccc21` has an IC50 greater than 30 µM. In the case of `CCC(=O)N1CCc2cc(S(=O)(=O)Nc3ccc(OC)c(OC)c3)ccc21`, the IC50 is reported as greater than 30 µM. In the case of `CCC(=O)N1CCc2cc(S(=O)(=O)Nc3cccc(C(F)(F)F)c3)ccc21`, the IC50 is reported as greater than 30 µM. `CCC(=O)N1CCc2cc(S(=O)(=O)Nc3cccc(OC(F)(F)C(F)F)c3)ccc21` showed an IC50 greater than 30 µM.
